Data reported in PubChem BioAssay AID720513 (Broad Institute, 2013).
Only a part is listed here, and it is no random draw. Potency and affinity values are given separately. Results filed as inconclusive are left out. Activity calls are given as the source filed them.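 Rule for the calls: active = fitted curve reaches 40% activation at or below the top valid concentration, in every replicate test; inconclusive = replicate tests disagree on the call; inactive = the rest, including activity in the opposite direction.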

Assay: PGC1a acetylation increase, cellular AlphaLISA – cell-based, cherry-picked samples, set 6, dose response (AID 720513);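 note: cells made to overexpress flag tagged PGC1a plus GCN5 acetyltransferase by viral infection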
Details: U2OS PGC1a acetylation AlphaLISA, overnight, 0 = neutral, -100 = inhibitor control; at 19.5 µM (top of the series)

SMILES	activation (acetylation increase)
CN(C)C(=O)Oc1noc2ccccc12	inactive: 12.1%
